Patent EP2096114A1, “Insecticidal Derivates of Substituted Phosphorylated Phenylalkyl Iminooxazolines and Iminothiazolines” (dated 2009)

What was measured:
Myzus persicae [1] = experiment: Myzus persicae - test (spray application); details: application rate of 20 g/ha; spray application on Chinese cabbage leaf-disks; all instars
Aphis gossypii [2] = experiment: Aphis gossypii - test (cotton leaves sprayed); details: application rate of 20 ppm; cotton leaves (Gossypium hirsutum) sprayed
Myzus persicae [3] = experiment: Myzus persicae - test (cabbage plants drenched); details: application rate of 20 ppm; cabbage plants (Brassica oleracea) drenched
Aphis gossypii [4] = experiment: Aphis gossypii - test (cotton plants drenched); details: application rate of 20 ppm; cotton plants (Gossypium hirsutum) drenched

Measured: mortality in %

CCCSP(=S)(OCC)N1CCOC1=NC(C)c1cc(F)cc(F)c1 (stereo not shown)
≥ 80%: Myzus persicae [1] | Aphis gossypii [2] | Myzus persicae [3]

CCCSP(=S)(OCC)N1CCOC1=NC(C)c1cccc(F)c1 (stereo not shown)
≥ 80%: all assays above
